Measured values as given in PubChem BioAssay (Tox21).
This is a selection; strong and weak results do not stand in their true shares. Results filed as inconclusive are left out. Active and inactive are the calls of the source. Unless noted, calls follow the shape of the full dose curve.

Chains of the proteins cited; added tags and fusions are not shown.
UniProt P14416, whole entry, looked up: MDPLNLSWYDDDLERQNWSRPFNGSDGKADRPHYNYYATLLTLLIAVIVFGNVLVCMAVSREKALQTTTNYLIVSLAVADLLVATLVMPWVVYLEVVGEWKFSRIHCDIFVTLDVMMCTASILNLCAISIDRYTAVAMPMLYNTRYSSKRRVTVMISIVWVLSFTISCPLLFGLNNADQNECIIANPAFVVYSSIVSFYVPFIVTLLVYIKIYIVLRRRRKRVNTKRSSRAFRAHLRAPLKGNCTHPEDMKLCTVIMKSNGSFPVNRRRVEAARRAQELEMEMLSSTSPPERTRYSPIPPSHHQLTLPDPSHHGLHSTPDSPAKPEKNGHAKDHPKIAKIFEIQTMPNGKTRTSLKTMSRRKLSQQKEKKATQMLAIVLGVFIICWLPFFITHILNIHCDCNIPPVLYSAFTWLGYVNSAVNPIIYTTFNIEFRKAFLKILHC
UniProt P28223, whole entry, looked up: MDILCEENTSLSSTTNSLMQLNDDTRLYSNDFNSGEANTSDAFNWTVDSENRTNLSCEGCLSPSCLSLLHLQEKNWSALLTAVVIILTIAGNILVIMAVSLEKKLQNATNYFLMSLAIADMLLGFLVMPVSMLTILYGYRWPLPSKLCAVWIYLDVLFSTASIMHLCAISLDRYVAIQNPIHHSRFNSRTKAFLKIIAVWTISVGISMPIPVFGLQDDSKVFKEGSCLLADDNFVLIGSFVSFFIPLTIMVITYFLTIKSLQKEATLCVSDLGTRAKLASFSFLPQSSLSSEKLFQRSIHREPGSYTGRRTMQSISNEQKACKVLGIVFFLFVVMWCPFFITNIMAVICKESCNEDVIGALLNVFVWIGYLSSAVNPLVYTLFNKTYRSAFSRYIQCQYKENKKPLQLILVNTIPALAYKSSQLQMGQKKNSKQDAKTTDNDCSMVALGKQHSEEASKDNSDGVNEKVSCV

How the values were obtained:
[1] = molecular target: D(2) dopamine receptor (Homo sapiens) (UniProt P14416); assay: Dopamine D2 receptor (DRD2) small molecule antagonists, cell-based qHTS assay (AID 1963595; active = well fitted inhibition curve with a large enough effect in the signal ratio in the repeat runs, with a control signal flat; the % refers to the signal ratio); details: HEK293-DRD2 cAMP HTRF antagonist mode
In short: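 HTRF cAMP read-out at 665 and 620 nm emission (340 nm excitation). Antagonist mode: compounds were tested against 12 nM quinpirole in DRD2-HEK293 cells, with 200 nM NKH477 raising cAMP and 0.1 mM Ro20-1724 blocking its breakdown.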

[2] = molecular target: 5-hydroxytryptamine receptor 2A (Homo sapiens) (UniProt P28223); assay: 5-hydroxytryptamine receptor 2A (HTR2A) small molecule antagonists, cell-based qHTS assay (AID 1963586); details: HTR2A-CHO cells, DOI-induced calcium flux, fluorescence; also: nearly all actives have a fitted effect of over 45% in size
Excerpt: National Center for Advancing Translational Sciences [NCATS]
Division of Preclinical Innovation [DPI]
U.S. Environmental Protection Agency [EPA]
National Institutes of Environmental Health Sciences [NIEHS]
National Toxicology Program [NTP]
U.S. Food and Drug Administration [FDA]
The HTR2A receptor is a subtype of the 5-HT2 receptor that belongs to the serotonin receptor family and is a G protein-coupled receptor (GPCR). The HTR2A-CHO cell line stably expressing human 5-hydroxytryptamine receptor 2A (HTR2A) can be used for screening antagonists of interactions between 5-HT2 and its ligands. The HTR2A-CHO calcium flux assay is a homogeneous fluorescence-based assay for detecting the intracellular calcium level using FDSS kinetic plate reader system.
Tox21 Assay Protocol Summary:
HTR2A-CHO cells were dispensed at 2000 cells/3uL/well in 1536-well black-clear bottom plates using a Multidrop Dispenser. After the assay plates were incubated at a 37 C/5% CO2 incubator for 18 h, 3 uL of Dye Loading Buffer was transferred to the assay plate by a Flying Reagent Dispenser. The assay plates were incubated at 37 C for 1h. For antagonist mode, 23 nL of compounds dissolved in DMSO, positive controls or DMSO only was transferred to the assay plate by a pin tool. After 5 min incubation at room temperature, 1.5 uL of 4-Iodo-2,5-dimethoxy-alpha-methylbenzeneethanamine hydrochloride (DOI) at 4nM was added to each well. The fluorescence intensity in the plates was measured using FDSS 7000EX kinetic plate reader for 3 min at 1 sec intervals.

[3] = molecular target: 5-hydroxytryptamine receptor 2A (Homo sapiens) (UniProt P28223); assay: 5-hydroxytryptamine receptor 2A (HTR2A) small molecule agonists, cell-based qHTS assay (AID 1963587); details: HTR2A-CHO cells, calcium flux fluorescence, agonist mode; also: nearly all actives have a fitted effect of over 30% in size
In short: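 CHO cells stably expressing human HTR2A, plated 18 h, loaded with calcium dye 1 h at 37 C. Agonist mode: compounds added and intracellular calcium fluorescence recorded kinetically for 2 min at 1 sec intervals.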
Potency is read from the fitted curve at half-maximal effect.

| Structure (SMILES) | Potency [1] | Potency [2] | Potency [3] |
| --- | --- | --- | --- |
| CN1CCc2cc(Cl)c(O)cc2[C@H]2c3ccccc3CC[C@@H]21 | active: 18.8 µM |  |  |
| Clc1cccc(N2CCNCC2)c1 |  | active: 23.1 nM | active: 26.8 nM |
| CCCN1CCC[C@@H]2Cc3[nH]ncc3C[C@H]21 |  | active: 2050 nM | active: 338 nM |
| COc1ccc2[nH]cc(CCN(C(C)C)C(C)C)c2c1 |  | active: 1.4 nM | active: 2 nM |
